Test results as given in paper PMC12155840 (Molecules, 2025).

Chains of the proteins cited; added tags and fusions are not shown.
UniProt P30542, whole entry: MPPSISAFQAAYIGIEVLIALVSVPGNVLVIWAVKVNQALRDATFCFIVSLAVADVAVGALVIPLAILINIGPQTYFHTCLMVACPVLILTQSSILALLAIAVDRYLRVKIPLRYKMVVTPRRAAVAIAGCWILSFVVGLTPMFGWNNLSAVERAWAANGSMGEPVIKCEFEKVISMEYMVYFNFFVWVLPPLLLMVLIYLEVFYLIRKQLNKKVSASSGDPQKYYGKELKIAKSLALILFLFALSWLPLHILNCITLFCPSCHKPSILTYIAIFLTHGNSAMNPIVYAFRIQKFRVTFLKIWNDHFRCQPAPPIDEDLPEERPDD

Target: human A1 adenosine receptor (hA1R) (Homo sapiens, UniProt P30542)
Experiment: cAMP inhibition assay, direct agonist mode, in CHO-K1-hA1R cells (Cisbio cAMP Gi kit, forskolin co-stimulation)
Conditions: DPCPX 1 μM, with Ze 911 extract, 1 μM forskolin

In the case of `CCCn1c(=O)c2[nH]c(C3CCCC3)nc2n(CCC)c1=O` [DPCPX, reference compound], the “Effect of antagonist on Ze 911-induced inhibition of cAMP formation” value is reported as “effectively blocked”.
